# Measurements from PMC10123104 (Nucleic Acids Research, 2023).
# Sequences of proteins named here, by UniProt entry; tags and fusion partners are left off. A change or cut given only in a name is not applied to a line headed by its entry.
# UniProt P30177: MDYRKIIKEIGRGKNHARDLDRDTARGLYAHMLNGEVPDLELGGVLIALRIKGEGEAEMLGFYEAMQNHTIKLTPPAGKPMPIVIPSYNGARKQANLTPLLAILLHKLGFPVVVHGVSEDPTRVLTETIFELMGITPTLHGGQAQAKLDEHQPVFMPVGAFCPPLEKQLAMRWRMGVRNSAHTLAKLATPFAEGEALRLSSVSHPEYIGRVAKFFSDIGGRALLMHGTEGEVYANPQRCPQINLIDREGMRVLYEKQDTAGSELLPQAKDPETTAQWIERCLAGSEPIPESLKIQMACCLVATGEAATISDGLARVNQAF
# Read-outs that look alike come from different tables or passages of the source.
# Biological target: YbiB (Escherichia coli, UniProt P30177)
# Type: binding
# Conditions: ITC, YbiB WT in syringe
compound,measurement,setting,value
CC[C@H](C)[C@H](NC(=O)[C@H](CCC(=O)O)NC(=O)[C@H](CCC(=O)O)NC(=O)[C@@H](N)CC(C)C)C(=O)N[C@@H](C)C(=O)N[C@@H](CCC(=O)O)C(=O)N[C@@H](CCC(=O)O)C(=O)N[C@@H](CC(=O)O)C(=O)N[C@@H](CC(=O)O)C(=O)N[C@@H](CCC(=O)O)C(=O)N[C@@H](CC(=O)O)C(=O)N[C@@H](C)C(=O)N[C@@H](CC(=O)O)C(=O)N[C@@H](CC(=O)O)C(=O)N[C@@H](CC(=O)O)C(=O)N[C@@H](C)C(=O)N[C@@H](CC(=O)O)C(=O)N[C@@H](CCC(=O)O)C(=O)N[C@@H](CC(=O)O)C(=O)N[C@@H](CC(=O)O)C(=O)O [peptide4-AA],"-TΔS, first binding event",repeat 1,1.22 kcal/mol
same,"-TΔS, first binding event",repeat 2,0.874 kcal/mol
same,"-TΔS, first binding event",repeat 3,4.10 kcal/mol
